From US5227488A, “Aza spiro decane and use thereof in treating CNS disorders” (Novo Nordisk A/S, priority 1989, dated 1993) come the findings set out here.

By UniProt entry, the sequences of proteins in these tests, tags left out.
UniProt P28564, whole entry: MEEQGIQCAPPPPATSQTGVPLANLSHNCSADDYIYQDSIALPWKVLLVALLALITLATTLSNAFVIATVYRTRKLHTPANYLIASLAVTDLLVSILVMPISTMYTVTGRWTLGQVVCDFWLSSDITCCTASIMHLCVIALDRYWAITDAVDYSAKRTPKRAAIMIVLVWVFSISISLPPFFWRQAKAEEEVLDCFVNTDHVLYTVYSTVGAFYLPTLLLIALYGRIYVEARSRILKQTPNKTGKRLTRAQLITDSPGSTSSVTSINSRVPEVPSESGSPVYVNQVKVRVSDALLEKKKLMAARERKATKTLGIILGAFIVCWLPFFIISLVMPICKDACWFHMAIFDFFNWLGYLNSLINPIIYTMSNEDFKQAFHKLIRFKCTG
UniProt P19327, whole entry: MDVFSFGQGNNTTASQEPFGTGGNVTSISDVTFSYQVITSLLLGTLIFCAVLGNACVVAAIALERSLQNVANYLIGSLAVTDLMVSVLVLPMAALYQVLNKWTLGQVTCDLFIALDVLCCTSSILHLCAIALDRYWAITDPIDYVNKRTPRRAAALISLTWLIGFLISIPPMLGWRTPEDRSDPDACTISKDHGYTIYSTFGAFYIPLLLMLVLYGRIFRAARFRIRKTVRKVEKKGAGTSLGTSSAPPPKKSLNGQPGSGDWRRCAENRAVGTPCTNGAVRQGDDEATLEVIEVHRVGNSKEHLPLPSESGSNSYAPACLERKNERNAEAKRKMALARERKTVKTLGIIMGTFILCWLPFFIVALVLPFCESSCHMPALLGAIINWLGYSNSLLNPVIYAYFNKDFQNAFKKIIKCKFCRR

Test [1] addresses T1, 5-HT1B (Rattus norvegicus, UniProt P28564).
T1 construct: from tissue; host or cells: rat brain: frontal cortex, hippocampus
Description: Receptor binding in vitro, 5-HT1B (3H-5-HT displacement, with 50 nM 8-OH-DPAT). As to the method:
(§1) Compounds of the general formula (I) were tested for binding to 5-HT receptors and compared with known ligands by the following procedure:
(§2) Rat brain tissue (as specified in the table hereinafter) was homogenized using a Polytron homogenizer. The final pellet was resuspended in 125 vol (tissue wet weight) of buffer.
(§3) In all assays incubation was carried out for 10 min at 37° C.
Labelling of the 5-HT1B receptor was complicated by the fact that the available ligand ^3 H-5-HT is nonselective.
(§4) Detailed conditions for the receptor binding assay in vitro are tabulated below.

The target in test [2] is T2, 5-HT1A (Rattus norvegicus, UniProt P19327).
T2 construct: from tissue; host or cells: rat brain: frontal cortex, hippocampus
The test can be described thus: Receptor binding in vitro, 5-HT1A (3H-8OH-DPAT displacement). The method, then: as §1, §2, §3, §4

Structures are written as SMILES.

One may read the IC50 as the point on the concentration scale where inhibition reaches its midpoint. The low end stands for greater potency in that assay, the high end for weaker potency in that assay. In test [1], `CCCN(CCC)C1CCc2cccc(O)c2C1` (centres unmarked) [Example 8-OH-DPAT, 8-hydroxy-2-(di-n-propylamino)tetralin, reference compound] showed an IC50 of 1.1 µM. With `CC1(C)CC(=O)N(CCCCN2CCN(c3ncccn3)CC2)C(=O)C1` [gepirone, reference compound], the IC50 in test [2] stood at 0.248 µM.
